Read-outs that look alike come from different tables or passages of the source.
Test: Peroxidase activity: ABTS oxidation with H2O2 (formation of ABTS+• radical cation at 660 nm)
Assay type: biochemical
Conditions: for Specific activity: ABTS oxidation with H2O2, pH 6.5
Procedure: The peroxidase activity of the compound on the secondary substrate ABTS was evaluated by following the formation of the ABTS^+• radical cation, in the presence of H2O2.
The reaction was followed by using spectrophotometry, measuring the appearance of the products in the reaction medium. The formation of ABTS^+• cation radical was followed at 660 nm (λmax (ε)=660 nm (1.40×10^4 M^−1cm^−1)). The reaction was performed in 50% TFE (v/v) 100 mM phosphate buffer, pH 6.5, using a 2.0×10^−7 M catalyst concentration.
Kinetic parameters of the compound were determined by varying the H2O2 concentration using fixed concentrations of the reducing substrates, and vice versa.
In more details, in the experiments performed at various H2O2 concentrations (in the range 0.01÷ 200 mM) the ABTS concentration was kept constant at 0.1 mM. In the experiments performed at various ABTS concentrations (in the range 0.005÷ 0.1 mM) the H2O2 concentration was 50 mM.
The experiments were performed in 50% TFE (v/v) 100 mM phosphate buffer, pH 6.5. As described in the example 10, the catalytic process was evaluated by following the formation of the ABTS^+• radical cation at 660 nm (c=[…] cm^−1). Kinetic parameters of the compound were determined by varying the H2O2 concentration using fixed concentrations of the reducing substrates, and vice versa.
In more details, in the first experiment the ABTS and the conjugate concentrations were kept constant at 0.1 mM and 2 10^−7 M, respectively, and the H2O2 concentration was varied in the range 10-100 mM. In the second experiment, the H2O2 and the conjugate concentrations were fixed at 50 mM and 2 10^−7 M, respectively, and the ABTS concentration was varied in the range 0.005÷ 0.1 mM.

“3,7,12,17-tetramethyl-porphyrin-2(18)-N9epsilon-(Ace-Asp1-Leu2-Gln3-Gln4-Leu5-His6-Ser7-Gln8-Lys9-Arg10-Lys11-Ile12-Thr13-Leu14-NH2)-18(2)-N9epsilon-(Ace-Asp1-Glu2-Gln3-Gln4-Leu5-Ser6-Ser7-Gln8-Lys9-Arg10-NH2)-di-propionamide [Example 6]” showed a Specific activity of 13.43 mol/g/min, a kcat (ABTS oxidation with H2O2, pH 6.5, 50% TFE (v/v) 100 mM phosphate buffer) of 785 s⁻¹ and a Km (ABTS oxidation with H2O2, pH 6.5, 50% TFE (v/v) 100 mM phosphate buffer, read-out: Km^H2O2) of 31 mM. It also gave a Specific activity (listed as Esempio 6) of 13.430 mol/g/min and a Km (AH2 = ABTS, pH 6.5, 50% TFE (v/v) 100 mM phosphate buffer, read-out: Km^AH2) of 0.05 mM.

Reference: patent US20130244232A1, “HIGH-EFFICIENCY CATALYSTS, PREPARATION AND USE THEREOF” (priority 2012, published 2013)
